The source of these data is ChEMBL document CHEMBL1151717, “In vivo active aldosterone synthase inhibitors with improved selectivity: lead optimization providing a series of pyridine substituted 3,4-dihydro-1H-quinolin-2-one derivatives” (J Med Chem, 2008).

The test has as its target T1, Cytochrome P450 11B2, mitochondrial (Homo sapiens, UniProt P19099).
T1 sequence (P19099 whole entry): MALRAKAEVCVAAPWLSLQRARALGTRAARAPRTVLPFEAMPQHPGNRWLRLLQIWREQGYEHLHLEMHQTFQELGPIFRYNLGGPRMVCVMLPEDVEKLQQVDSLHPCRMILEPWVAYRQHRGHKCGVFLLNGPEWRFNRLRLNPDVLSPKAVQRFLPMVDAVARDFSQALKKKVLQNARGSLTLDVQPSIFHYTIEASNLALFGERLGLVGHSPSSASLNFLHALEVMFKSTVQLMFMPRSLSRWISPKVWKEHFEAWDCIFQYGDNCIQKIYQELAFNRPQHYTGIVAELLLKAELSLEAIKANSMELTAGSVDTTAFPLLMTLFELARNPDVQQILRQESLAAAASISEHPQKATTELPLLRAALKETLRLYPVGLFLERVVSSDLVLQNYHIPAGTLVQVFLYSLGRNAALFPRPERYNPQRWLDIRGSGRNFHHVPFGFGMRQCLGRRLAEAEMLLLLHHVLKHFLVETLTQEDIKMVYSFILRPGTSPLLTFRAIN
The experiment in a line: Inhibition of human CYP11B2 expressed in hamster V79 MZh cells at 500 nM. The test is classed as cell-based. Particulars: V79MZh.
Broadly, the inhibition is the percentage by which the read-out fell short of the control. `CCN1C(=O)CCc2cc(-c3cccnc3)ccc21` had an inhibition at 0.5 µM of 93%.
The result for `O=C1CCc2cc(-c3cccnc3)cc(Cl)c2N1` reads 97%.
The compound `O=C1CSc2cc(-c3cccnc3)ccc2N1` displayed an inhibition at 0.5 µM of 92%.
The result for `O=C1CCc2cc(-c3cccnc3)ccc2N1` reads 88%.
